# Test results as given in patent US20150272934A1, “USE OF CSE INHIBITORS FOR THE TREATMENT OF CUTANEOUS INJURIES OR CONDITIONS AND SLEEP-RELATED BREATHING DISORDERS” (SOVA PHARMACEUTICALS, INC., priority 2012, published 2015).
# Sequences of proteins named here, by UniProt entry; tags and fusion partners are left off.
# UniProt P32929, whole entry, looked up: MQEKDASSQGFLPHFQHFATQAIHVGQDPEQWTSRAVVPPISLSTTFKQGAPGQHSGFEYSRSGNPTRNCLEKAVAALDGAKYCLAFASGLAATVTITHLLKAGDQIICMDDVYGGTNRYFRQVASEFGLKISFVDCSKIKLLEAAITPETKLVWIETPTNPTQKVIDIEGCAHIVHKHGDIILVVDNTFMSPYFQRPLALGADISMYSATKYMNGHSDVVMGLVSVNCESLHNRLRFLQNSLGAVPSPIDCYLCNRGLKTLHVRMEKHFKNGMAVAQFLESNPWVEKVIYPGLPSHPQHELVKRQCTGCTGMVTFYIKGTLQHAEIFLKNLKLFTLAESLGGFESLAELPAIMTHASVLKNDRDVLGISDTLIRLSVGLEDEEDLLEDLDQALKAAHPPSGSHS
# Target: human, mouse or rat recombinant CSE (UniProt P32929)
# Assay: CSE In Vitro Assay
# Details: recombinant CSE 20 ug/ml, 50 uM PLP, DL-homocysteine substrate, 3 hours 37° C.; species of enzyme not given
smiles,measurement,value
NN(CCCc1nnn[nH]1)c1nnn[nH]1,IC50,10 to 100 µM
